The target of the data set is endogenous tobacco RUBISCO small subunit (UniProt P69249).

The chains behind the UniProt entries cited, without tags or fusion partners. Residues count along the entry.
UniProt P69249, 58-180: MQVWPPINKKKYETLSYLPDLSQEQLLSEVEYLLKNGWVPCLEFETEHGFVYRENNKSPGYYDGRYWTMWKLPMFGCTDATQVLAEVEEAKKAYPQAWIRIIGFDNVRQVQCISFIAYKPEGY

For the substance “Amaranthus edulis RUBISCO large subunit with C-terminal 6-His tag, product of the chloroplast transgene cpAErbcL (pTCP103 tobacco)”, the RUBISCO Activity (RuBP-dependent 14CO2 fixation), pTCP103-1 tobacco crude extract was 0.15 mU/mg and the RUBISCO Activity (RuBP-dependent 14CO2 fixation), pTCP103-1 tobacco purified RUBISCO came out at 4.6 mU/mg.

For the origin of these results see patent publication US20090172842.
